Test results from ChEMBL document CHEMBL1122801, “Nontricyclic antidepressant agents derived from cis- and trans-1-amino-4-aryltetralins” (J Med Chem, 1984).

Protein sequences, listed by entry. Tags and fused reporters are not part of them.
UniProt P23977, whole entry: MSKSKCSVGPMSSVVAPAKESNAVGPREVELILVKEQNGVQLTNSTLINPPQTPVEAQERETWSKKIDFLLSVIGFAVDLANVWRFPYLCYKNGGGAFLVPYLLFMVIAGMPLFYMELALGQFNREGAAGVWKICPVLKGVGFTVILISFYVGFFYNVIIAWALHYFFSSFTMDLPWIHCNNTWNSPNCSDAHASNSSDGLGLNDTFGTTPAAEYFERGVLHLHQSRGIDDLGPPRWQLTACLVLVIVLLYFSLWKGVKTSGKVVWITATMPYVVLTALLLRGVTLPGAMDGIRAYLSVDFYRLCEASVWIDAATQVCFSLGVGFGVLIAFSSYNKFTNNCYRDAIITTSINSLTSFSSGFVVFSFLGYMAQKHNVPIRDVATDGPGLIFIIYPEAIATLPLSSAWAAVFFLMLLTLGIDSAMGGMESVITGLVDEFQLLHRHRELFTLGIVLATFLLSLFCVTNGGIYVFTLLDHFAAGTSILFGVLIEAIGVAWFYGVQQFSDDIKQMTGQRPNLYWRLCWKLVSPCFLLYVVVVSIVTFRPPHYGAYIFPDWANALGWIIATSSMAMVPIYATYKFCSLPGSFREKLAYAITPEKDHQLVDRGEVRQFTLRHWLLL

Biological target: Sodium-dependent dopamine transporter (Rattus norvegicus, UniProt P23977)
Format: functional, tissue-based, Striatum

`CN(C)CCCN1c2ccccc2CCc2ccccc21` [IMIPRAMINE] showed an IC50 of 20 µM.
